# Measured values from ChEMBL document CHEMBL4043104, “Conjugates of salicylaldoximes and peripheral site ligands: Novel efficient nonquaternary reactivators for nerve agent-inhibited acetylcholinesterase” (2017).
# Target: Acetylcholinesterase (Homo sapiens, UniProt P22303)
# Test: Reactivation of tabun-induced inhibition of human AChE assessed as dissociation constant using acetylthiocholine as substrate preincubated for 30 mins followed by substrate addition measured at 5 to 180 mins by Ellman's method
row,Structure (SMILES),Kd [µM]
1,COc1cc(/C=N/O)c(O)c(CN2CCC(CN3CCc4cc(OC)c(OC)cc4C3)CC2)c1,51
2,COc1cc2c(cc1OC)CN(CC1CCN(Cc3cc(F)cc(/C=N/O)c3O)CC1)CC2,53
3,COc1cc2c(cc1OC)CN(CC1CCN(Cc3cc(Cl)cc(/C=N/O)c3O)CC1)CC2,8.9
4,COc1cc2c(cc1OC)CN(CC1CCN(Cc3cc(Br)cc(/C=N/O)c3O)CC1)CC2,7.2
